How the values were obtained:
[1] = target: recombinant human ACC2 (Homo sapiens, UniProt O00763); assay: Measurement of human ACC2 inhibition (recombinant hACC2 Transcreener ADP detection FP assay); assay type: biochemical; conditions: read-out: rhACC2 IC50
[2] = target: rat liver ACC (Rattus norvegicus, UniProt P11497); conditions: read-out: Rat liver ACC IC50; rat liver ACC radio enzymatic assay

Chains of the proteins cited; added tags and fusions are not shown.
UniProt O00763, whole entry: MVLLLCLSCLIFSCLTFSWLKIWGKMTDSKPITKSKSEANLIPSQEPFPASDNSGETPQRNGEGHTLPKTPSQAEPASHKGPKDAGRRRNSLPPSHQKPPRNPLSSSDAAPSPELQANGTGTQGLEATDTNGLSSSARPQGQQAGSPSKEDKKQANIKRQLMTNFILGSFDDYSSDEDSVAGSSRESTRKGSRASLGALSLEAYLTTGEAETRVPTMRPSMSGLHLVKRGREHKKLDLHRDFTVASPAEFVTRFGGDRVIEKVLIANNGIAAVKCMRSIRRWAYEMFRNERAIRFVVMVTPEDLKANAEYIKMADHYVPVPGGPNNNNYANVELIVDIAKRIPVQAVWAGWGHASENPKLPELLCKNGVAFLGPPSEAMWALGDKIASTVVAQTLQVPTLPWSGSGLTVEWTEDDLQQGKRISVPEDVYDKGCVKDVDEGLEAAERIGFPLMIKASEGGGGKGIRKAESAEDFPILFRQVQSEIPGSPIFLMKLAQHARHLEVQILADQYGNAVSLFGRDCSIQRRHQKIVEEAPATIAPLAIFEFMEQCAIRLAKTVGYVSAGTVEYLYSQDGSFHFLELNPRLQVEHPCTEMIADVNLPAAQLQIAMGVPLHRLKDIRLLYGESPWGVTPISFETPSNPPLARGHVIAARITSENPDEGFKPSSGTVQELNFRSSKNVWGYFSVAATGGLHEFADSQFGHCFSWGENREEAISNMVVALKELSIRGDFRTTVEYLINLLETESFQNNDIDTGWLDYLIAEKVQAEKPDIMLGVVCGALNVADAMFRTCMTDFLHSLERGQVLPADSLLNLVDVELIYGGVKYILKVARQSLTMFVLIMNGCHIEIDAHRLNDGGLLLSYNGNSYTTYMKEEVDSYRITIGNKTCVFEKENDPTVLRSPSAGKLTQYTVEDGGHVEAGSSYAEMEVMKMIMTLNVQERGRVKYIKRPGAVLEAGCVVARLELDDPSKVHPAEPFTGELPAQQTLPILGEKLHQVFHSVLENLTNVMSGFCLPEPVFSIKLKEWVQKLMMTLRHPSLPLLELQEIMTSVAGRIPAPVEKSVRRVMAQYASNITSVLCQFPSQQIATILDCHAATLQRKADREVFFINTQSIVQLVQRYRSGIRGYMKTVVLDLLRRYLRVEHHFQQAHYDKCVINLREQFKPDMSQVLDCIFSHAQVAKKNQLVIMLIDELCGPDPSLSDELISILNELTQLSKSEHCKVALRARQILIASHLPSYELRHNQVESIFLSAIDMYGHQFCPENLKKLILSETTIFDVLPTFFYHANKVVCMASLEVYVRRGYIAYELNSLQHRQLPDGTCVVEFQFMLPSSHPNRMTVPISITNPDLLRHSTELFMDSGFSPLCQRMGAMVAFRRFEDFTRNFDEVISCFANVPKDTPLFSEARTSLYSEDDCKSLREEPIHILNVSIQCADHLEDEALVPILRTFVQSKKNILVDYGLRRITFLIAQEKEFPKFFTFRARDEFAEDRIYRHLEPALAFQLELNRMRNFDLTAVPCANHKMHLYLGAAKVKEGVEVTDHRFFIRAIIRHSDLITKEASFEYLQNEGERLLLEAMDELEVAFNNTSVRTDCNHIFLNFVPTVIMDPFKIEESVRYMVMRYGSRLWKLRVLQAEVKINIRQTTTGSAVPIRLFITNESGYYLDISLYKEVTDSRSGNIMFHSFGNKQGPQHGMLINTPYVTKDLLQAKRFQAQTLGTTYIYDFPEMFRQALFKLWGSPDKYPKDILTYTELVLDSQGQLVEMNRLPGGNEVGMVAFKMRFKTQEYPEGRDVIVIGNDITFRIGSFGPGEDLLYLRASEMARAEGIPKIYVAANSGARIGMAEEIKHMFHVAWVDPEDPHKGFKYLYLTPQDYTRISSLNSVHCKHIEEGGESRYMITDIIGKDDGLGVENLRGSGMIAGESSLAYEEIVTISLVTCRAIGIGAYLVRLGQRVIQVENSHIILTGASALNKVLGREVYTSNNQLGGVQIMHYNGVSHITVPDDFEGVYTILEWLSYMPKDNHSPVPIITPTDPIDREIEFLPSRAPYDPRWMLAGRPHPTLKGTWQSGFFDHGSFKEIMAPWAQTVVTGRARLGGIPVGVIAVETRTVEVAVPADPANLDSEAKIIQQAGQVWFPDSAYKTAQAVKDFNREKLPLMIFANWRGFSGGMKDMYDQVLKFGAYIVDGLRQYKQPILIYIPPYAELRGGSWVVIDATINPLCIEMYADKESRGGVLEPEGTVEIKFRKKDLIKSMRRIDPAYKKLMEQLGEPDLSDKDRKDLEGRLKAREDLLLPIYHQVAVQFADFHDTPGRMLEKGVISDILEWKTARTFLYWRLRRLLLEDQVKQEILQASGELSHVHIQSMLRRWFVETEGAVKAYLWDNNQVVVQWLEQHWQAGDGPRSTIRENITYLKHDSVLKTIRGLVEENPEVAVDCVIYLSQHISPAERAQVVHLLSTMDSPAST

Structure (SMILES) | IC50 [1] [nM] | IC50 [2] [nM]
CCn1nc2c(c1C)OC1(CCN(C(=O)c3ccc4c(OC)cccc4c3)CC1)CC2=O | 35 | 26
CCn1nc2c(c1C)OC1(CCN(C(=O)c3ccc4cc(C)ccc4c3)CC1)CC2=O | 207 | 198
Cc1cc2[nH]ncc2cc1C(=O)N1CCC2(CC1)CC(=O)c1nn(C(C)(C)C)cc1O2 | 27 | 7
